Reference: EP4837910A1, “ISOXAZOLINE COMPOUND AND PREPARATION METHOD THEREFOR, HERBICIDAL COMPOSITION, AND USE” (dated 2026)

Assays:
[1] = system: Monocotyledonous and dicotyledonous weed; assay: Post-emergence test on weeds (greenhouse, spray tower); conditions: after 3 weeks of cultivation in a greenhouse, fresh weight control rate
[2] = system: Monocotyledonous and dicotyledonous weed; assay: Pre-emergence test on weeds (greenhouse, sprayed immediately after sowing); conditions: fresh weight control rate; for activity level of plant damage (growth control rate), Zea mays: crop Zea mays; for activity level of plant damage (growth control rate), Digitaria sanguinalis / activity level of plant damage (growth control rate), Lolium multiflorum / activity level of plant damage (growth control rate), Setaria viridis / activity level of plant damage (growth control rate), Descurainia sophia: Dosage 240 g a.i./ha, after 4 weeks in greenhouse
[3] = sprayed immediately after sowing, 240 g a.i./ha, observed after 4 weeks in greenhouse

Compound | Amaranthus retroflexus, activity level of plant damage (growth control rate) ([1]; Dosage 60 g a.i./ha) | Digitaria sanguinalis, activity level of plant damage (growth control rate) ([1]; Dosage 60 g a.i./ha) | Echinochloa crus-galli, activity level of plant damage (growth control rate) ([1]; Dosage 60 g a.i./ha) | activity level (growth control rate), Digitaria sanguinalis [2, 3] | activity level (growth control rate), Setaria viridis [2, 3] | activity level of plant damage (growth control rate), Triticum aestivum ([2]; crop Triticum aestivum, sprayed immediately after sowing, 240 g a.i./ha, observed after 4 weeks in greenhouse) | activity level of plant damage (growth control rate), Zea mays [2, 3] | activity level of plant damage (growth control rate), Digitaria sanguinalis [2] | activity level of plant damage (growth control rate), Lolium multiflorum [2] | activity level of plant damage (growth control rate), Setaria viridis [2] | Avena fatua, activity level of plant damage (growth control rate) ([1]; Dosage 240 g a.i./ha) | Digitaria sanguinalis, activity level of plant damage (growth control rate) ([1]; Dosage 240 g a.i./ha) | Echinochloa crus-galli, activity level of plant damage (growth control rate) ([1]; Dosage 240 g a.i./ha) | activity level of plant damage (growth control rate), Descurainia sophia [2]
C=C(C)[C@]1(C(=O)N[C@@H](C)C(=O)NOCCCCCCCC)CC(c2cc(Cl)cc(Cl)c2)=NO1 | 8 (Level 8: growth control rate greater than or equal to 90% and less than 100%) | 8 (Level 8: growth control rate greater than or equal to 90% and less than 100%) | 8 (Level 8: growth control rate greater than or equal to 90% and less than 100%) | 8 (Level 8: growth control rate greater than or equal to 90% and less than 100%) | 8 (Level 8: growth control rate greater than or equal to 90% and less than 100%) | 0 | 1 (Level 1: growth control rate less than 10%) |  |  |  |  |  |  | 
C=C(C)[C@]1(C(=O)N[C@@H](C)C(=O)NOCC2CCCCC2)CC(c2cc(F)cc(F)c2)=NO1 |  | 8 (Level 8: growth control rate greater than or equal to 90% and less than 100%) | 8 (Level 8: growth control rate greater than or equal to 90% and less than 100%) | 9 | 9 |  |  |  |  |  |  |  |  | 
C#CC[C@H](NC(=O)[C@@]1(C(=C)C)CC(c2cc(F)cc(Cl)c2)=NO1)C(=O)NOCC |  | 8 (Level 8: growth control rate greater than or equal to 90% and less than 100%) | 8 (Level 8: growth control rate greater than or equal to 90% and less than 100%) | 9 | 9 |  |  |  |  |  |  |  |  | 
C=C(C)[C@]1(C(=O)N[C@@H](C)C(=O)NOc2ccccc2)CC(c2cc(F)cc(F)c2)=NO1 |  | 8 (Level 8: growth control rate greater than or equal to 90% and less than 100%) | 5 (Level 5: growth control rate greater than or equal to 50% and less than 70%) |  |  |  |  | 9 | 9 | 9 |  |  |  | 
C=C(C)[C@]1(C(=O)N[C@@H](C)C(=O)NOCC(=O)NC)CC(c2cc(F)cc(F)c2)=NO1 |  | 8 (Level 8: growth control rate greater than or equal to 90% and less than 100%) | 8 (Level 8: growth control rate greater than or equal to 90% and less than 100%) | 9 | 9 |  |  |  |  |  |  |  |  | 
C=C(C)[C@]1(C(=O)N[C@@H](C)C(=O)NOc2ccc(Cl)cc2)CC(c2cc(F)cc(F)c2)=NO1 |  | 8 (Level 8: growth control rate greater than or equal to 90% and less than 100%) | 8 (Level 8: growth control rate greater than or equal to 90% and less than 100%) | 9 | 9 |  |  |  |  |  |  |  |  | 
C=C(C)[C@]1(C(=O)N[C@@H](C)C(=O)N2CCCCO2)CC(c2cc(Cl)cc(Cl)c2)=NO1 | 8 (Level 8: growth control rate greater than or equal to 90% and less than 100%) | 9 | 8 (Level 8: growth control rate greater than or equal to 90% and less than 100%) |  |  |  |  | 9 |  | 9 |  |  |  | 
C=C(C)[C@]1(C(=O)NCC(=O)NOCC)CC(c2cc(F)cc(F)c2)=NO1 |  | 8 (Level 8: growth control rate greater than or equal to 90% and less than 100%) | 9 |  |  |  |  | 9 | 9 | 9 |  |  |  | 
C=C(C)[C@]1(C(=O)N[C@H](C(=O)NOCC)C2CC2)CC(c2cc(F)cc(F)c2)=NO1 | 6 (Level 6: growth control rate greater than or equal to 70% and less than 80%) | 6 (Level 6: growth control rate greater than or equal to 70% and less than 80%) | 8 (Level 8: growth control rate greater than or equal to 90% and less than 100%) |  |  |  |  | 8 (Level 8: growth control rate greater than or equal to 90% and less than 100%) |  | 6 (Level 6: growth control rate greater than or equal to 70% and less than 80%) |  |  |  | 
C=C(C)[C@]1(C(=O)N[C@@H](C)C(=O)NOCC#CC2CC2)CC(c2cc(Cl)cc(Cl)c2)=NO1 | 6 (Level 6: growth control rate greater than or equal to 70% and less than 80%) | 8 (Level 8: growth control rate greater than or equal to 90% and less than 100%) | 8 (Level 8: growth control rate greater than or equal to 90% and less than 100%) | 9 | 9 |  | 0 |  |  |  |  |  |  | 
C=C(C)[C@]1(C(=O)N[C@@H](C)C(=O)NOCC)CC(c2cc(F)cc(F)c2)=NO1 |  |  |  |  |  |  |  | 9 | 9 | 9 | 9 | 9 | 9 | 
C=C(C)[C@]1(C(=O)NC(C(=O)NOCC)C2CC2)CC(c2cc(F)cc(F)c2)=NO1 (stereo partly drawn) |  | 8 (Level 8: growth control rate greater than or equal to 90% and less than 100%) | 9 |  |  |  |  | 9 | 8 (Level 8: growth control rate greater than or equal to 90% and less than 100%) | 9 |  |  |  | 6 (Level 6: growth control rate greater than or equal to 70% and less than 80%)
C=C(C)[C@]1(C(=O)N[C@@H](C)C(=O)NOC(C)C)CC(c2cc(F)cc(F)c2)=NO1 |  | 8 (Level 8: growth control rate greater than or equal to 90% and less than 100%) | 6 (Level 6: growth control rate greater than or equal to 70% and less than 80%) |  |  |  |  | 9 | 9 | 9 |  |  |  | 9
C=C(C)[C@]1(C(=O)N[C@@H](C)C(=O)NOCC(F)F)CC(c2cc(F)cc(F)c2)=NO1 |  | 8 (Level 8: growth control rate greater than or equal to 90% and less than 100%) | 6 (Level 6: growth control rate greater than or equal to 70% and less than 80%) |  |  |  |  | 9 | 9 | 8 (Level 8: growth control rate greater than or equal to 90% and less than 100%) |  |  |  | 
C=C(C)[C@]1(C(=O)N[C@@H](CC)C(=O)NOCC)CC(c2cc(F)cc(F)c2)=NO1 |  | 9 | 6 (Level 6: growth control rate greater than or equal to 70% and less than 80%) |  |  |  |  | 9 | 9 | 9 |  |  |  | 6 (Level 6: growth control rate greater than or equal to 70% and less than 80%)
